What was measured:
TNFα = test: Lipopolysaccharide (LPS) stimulated whole blood measuring TNFα levels assay; format: cell-based; conditions: LPS 200 ng/ml, 24 hours, read-out: pIC50, TNFα levels in LPS stimulated whole blood (converted)
Experimental: Activation of monocytic cells by agonists of toll-like receptors such as bacterial lipopolysaccharide (LPS) results in production of key inflammatory mediators including TNFα. Such pathways are widely considered to be central to the pathophysiology of a range of auto-immune and inflammatory disorders.
After further incubation for 24 hours at 37 degrees, 140 ul of PBS are added to each well. The plates are sealed, shaken for 10 minutes and then centrifuged (2500 rpm×10 min). 100 ul of the supernatant are removed and TNFα levels assayed by immunoassay (typically by MesoScale Discovery technology) either immediately or following storage at −20 degrees. Dose response curves for each compound was generated from the data and an IC50 value was calculated.

[1] = tested on: Balb/c male mice given a lethal dose of LPS; test: In vivo mouse endotoxemia model; conditions: 15 mg/kg LPS i.p., compound 10 mg/kg intravenously ninety minutes later
Source text: High doses of Endotoxin (bacterial lipopolysaccharide) administered to animals produce a profound shock syndrome including a strong inflammatory response, dysregulation of cardiovascular function, organ failure and ultimately mortality. This pattern of response is very similar to human sepsis and septic shock, where the body's response to a significant bacterial infection can be similarly life threatening.
To test the compounds for use in the invention groups of eight Balb/c male mice were given a lethal dose of 15 mg/kg LPS by intraperitoneal injection. Ninety minutes later, animals were dosed intravenously with vehicle (20% cyclodextrin 1% ethanol in apyrogen water) or compound (10 mg/kg). The survival of animals was monitored at 4 days.

## CCNC(=O)C[C@@H]1N=C(c2ccc(Cl)cc2)c2cc(OC)ccc2-n2c(C)nnc21 [Example 2, 2-[(4S)-6-(4-Chlorophenyl)-1-methyl-8-(methyloxy)-4H-[1,2,4]triazolo[4,3-a][1,4]benzodiazepin-4-yl]-N-ethylacetamide]
TNFα
  IC50: ≤ 1 µM
[1]
  Animals surviving at 4 days, percent: (52%)
[1]; survivors/total
  Numbers of animals surviving at 4 days (summed across multiple repeat experiments): 24/56

Reference: patent publication US20150133436A1, “Bromodomain Inhibitors For Treating Autoimmune And Inflammatory Diseases” (GlaxoSmithKline LLC, priority 2009, published 2015)
